Literature values as cited in publication PMC11520371, “Abnormally high plasma concentrations of M-4, the active metabolite of edoxaban, at the onset of acute kidney injury in a patient receiving rifampin and clarithromycin: a case report” (Journal of Pharmaceutical Health Care and Sciences, 2024).

Test system: factor Xa
Set-up: method as in PMID 26620048
Conditions: cited from earlier work

CN1CCc2nc(C(=O)N[C@@H]3C[C@@H](C(=O)N(C)C)CC[C@@H]3NC(=O)C(=O)Nc3ccc(Cl)cn3)sc2C1 [edoxaban]
anti-factor Xa activity IC50: 1.64 ng/mL | pIC50 (read-out: anti-factor Xa activity IC50): 8.52

pIC50: −log10 of the molar value.
